# According to patent US4228187A, “Alkyl and cycloalkylthiophenylalkylaminoalkanols, their salts and the preparation thereof” (priority 1973, dated 1980):
# Test system: peripheral vasodilatatory activity
# Test: Vasodilatory effect after intraarterial injection in dog
# Format: in vivo
smiles,measurement,setting,value
"COc1ccc(Cc2nccc3cc(OC)c(OC)cc23)cc1OC [papaverine, reference compound]",Half-life (of vasodilatory effect),10 μg/kg,19 s
same,Half-life (of vasodilatory effect),20 μg/kg,25 s
same,Half-life (of vasodilatory effect),30 μg/kg,26 s
